Reference: ChEMBL document CHEMBL6153125, “Harnessing the Magic Methyl Effect: Discovery of CLPP-2068 as a Novel HsClpP Activator for the Treatment of Diffuse Large B-Cell Lymphoma” (J Med Chem, 2025)

Key:
[1] = Half life in ICR mouse at 10 mg/kg, po measured upto 24 hrs by LC-MS/MS analysis; settings: in vivo
[2] = MRT in ICR mouse at 10 mg/kg, po measured upto 24 hrs by LC-MS/MS analysis; settings: in vivo
[3] = Half life in ICR mouse at 2 mg/kg, iv measured upto 24 hrs by LC-MS/MS analysis; settings: in vivo
[4] = AUCt in ICR mouse at 2 mg/kg, iv measured upto 24 hrs by LC-MS/MS analysis; settings: in vivo
[5] = Clearance in ICR mouse at 2 mg/kg, iv measured upto 24 hrs by LC-MS/MS analysis; settings: in vivo
[6] = MRT in ICR mouse at 2 mg/kg, iv measured upto 24 hrs by LC-MS/MS analysis; settings: in vivo
[7] = Volume of distribution at steady state in ICR mouse at 2 mg/kg measured upto 24 hrs by LC-MS/MS analysis; settings: in vivo, iv
[8] = Metabolic stability in rat liver microsomes assessed as half life
[9] = Metabolic stability in human liver microsomes assessed as half life
[10] = Metabolic stability in rat liver microsomes assessed as intrinsic clearance
[11] = Metabolic stability in human liver microsomes assessed as intrinsic clearance
[12] = Metabolic stability in rat liver microsomes assessed as apparent intrinsic clearance
[13] = Metabolic stability in human liver microsomes assessed as apparent intrinsic clearance
[14] = Metabolic stability in rat liver microsomes assessed as hepatic clearance
[15] = Metabolic stability in human liver microsomes assessed as hepatic clearance
in vivo [16] = settings: ICR, mouse, po, 10 mg/kg
in vivo [17] = settings: ICR, mouse, po, 10 mg/kg; remark: listed apart in the source
in vivo [18] = settings: ICR, mouse, po, 10 mg/kg; remark: listed apart in the source
in vivo [19] = settings: ICR, mouse, po, 10 mg/kg; remark: listed apart in the source

half-life at 24 h [1]: 3.73 h | MRT at 24 h [2]: 3.78 h | half-life at 24 h [3]: 2.11 h | AUC(0-t) at 24 h [4]: 1290 ng·h/mL | clearance at 24 h [5]: 25.9 mL/min/kg | MRT at 24 h [6]: 1.62 h | Vd at 24 h [7]: 2.5 L/kg | half-life [8]: 10.1 h | half-life [9]: 26.9 h | CLint scaled [10]: 344 mL/min/kg | CLint scaled [11]: 129 mL/min/kg | CLint scaled [12]: 620 mL/min/kg | CLint scaled [13]: 151 mL/min/kg | CLhep predicted [14]: 50.7 mL/min/kg | CLhep predicted [15]: 18.2 mL/min/kg | Tmax at 24 h (in vivo [16]): 0.5 h | Cmax at 24 h (in vivo [17]): 1030 ng/mL | AUC(0-t) at 24 h (in vivo [18]): 3410 ng·h/mL | bioavailability at 24 h (in vivo [19]): 52.8%
Compound: C[C@@H]1Cc2nc(NCc3ccc(Br)cc3)[nH]c(=O)c2CN1Cc1cccc(C#N)c1
